Ab-91 heavy chain CDR variants: yeast mating affinities

Reference: Engelhart et al. 2022, doi:10.1038/s41597-022-01779-4. File: FLAb, binding data.

The target is the same throughout: PDVDLGDISGINAS, from the HR2 region of SARS-CoV-2 spike.

Each scFv is VL, three GGGGS repeats, VH, as in the parent Ab-91, and differs from it in the CDRs of the heavy chain only.
VL: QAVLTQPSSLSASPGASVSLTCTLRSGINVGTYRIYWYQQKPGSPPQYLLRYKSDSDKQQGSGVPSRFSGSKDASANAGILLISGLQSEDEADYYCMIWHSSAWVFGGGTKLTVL
VH: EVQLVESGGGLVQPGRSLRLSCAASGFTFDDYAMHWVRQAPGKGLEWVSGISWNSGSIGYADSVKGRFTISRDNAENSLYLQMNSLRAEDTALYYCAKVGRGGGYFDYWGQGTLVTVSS

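The starting antibody came from a phage panning campaign against this peptide. Variants in AAYL51 differ from the parent at up to three CDR positions; double and triple changes were sampled at random. In AlphaSeq, yeast of one mating type display the scFv and yeast of the other type display the target. After mating in shaken culture at 30 °C for 16 h, diploids were selected and their barcode pairs sequenced. The ratio of observed to expected reads was calibrated, replicate by replicate, on BCL2-family standards whose Kd was known from biolayer interferometry. There are three technical replicates.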

The parent's heavy chain CDRs are GFTFDDYAMH, GISWNSGSIGYADSVK, VGRGGGYFDY; each variant's own CDRs replace them letter for letter.
Scale: log10 of Kd in nM, estimated from mating counts; low values are strong binders.
The mean shown is taken over the replicates in which the pair was detected.
A pair that was not seen in that replicate is written "ND"; this usually means weak binding, but a binder can also be missed.

CDR-H1	CDR-H2	CDR-H3	log10 Kd, replicates	mean, log10 nM	control signals
GFTFDDYAMH	GISWNSGSIGVADSVK	VGVGGGYFTY	ND / ND / ND	ND	1 of 9 (4.94)
GFTFDDYAMH	GISWNSGSIGYADSVK	VYRGGGYHDY	ND / ND / ND	ND	1 of 9 (3.95)
GFTFDDYAMH	GISWRSGSIGYADSLK	GGRGGGYFDY	ND / ND / 4.66	4.66	1 of 9 (4.44)
GFTFDDYAMH	GITWNSGSIGYADSVK	VGRGGGYVDY	ND / ND / ND	ND	5 of 9 (4.58)
GFTFDDYAIH	GISWNSGSIGYADRVK	VGRGGGYMDY	4.36 / ND / ND	4.36	1 of 9 (3.27)
GRTFDDYAMH	GISWNSGSIGYADSVK	VGRGGGYFDY	ND / ND / ND	ND	0 of 9
GTTFDDPAMH	GISWNSGSIGYADSCK	VGRGGGYFDY	3.15 / ND / ND	3.15	3 of 9 (5.10)
GFTFDDYRMH	GISWQSGSIGYADSVK	HGRGGGYFDY	ND / ND / ND	ND	1 of 9 (6.12)
EFTFDDHAMH	GISWNSGSIGYADSVK	VGRGGFYFDY	5.85 / 4.06 / ND	4.95	2 of 9 (4.31)
GFSFDDYAMH	TISWNSGSIGYADSWK	VGRGGGYFDY	ND / ND / ND	ND	0 of 9
GFTFDDYAMH	GCSWMSGSIGYRDSVK	VGRGGGYFDY	ND / ND / ND	ND	0 of 9
GFTFDDYAMH	GISWNSGSIGYADFVK	VGRLGGTFDY	4.17 / 5.07 / 4.13	4.45	3 of 9 (4.92)
GFTFDDTAMH	GISWNSGSQGYADSYK	VGRGGGYFDY	4.21 / ND / 5.74	4.98	7 of 9 (4.53)
GFTFDDYAMH	GISHNSGSIHYADSVK	HGRGGGYFDY	5.05 / 4.58 / 5.09	4.91	2 of 9 (4.70)
GFTFDCYAMH	GISWNSGSIGQADSVK	VGRGGHYFDY	ND / ND / ND	ND	0 of 9
GFTFDDYAMH	GISWNSGSIGYACSVK	VGRGGGYNVY	ND / 3.41 / ND	3.41	1 of 9 (3.40)
GFTVDDYTMH	EISWNSGSIGYADSVK	VGRGGGYFDY	ND / 4.75 / ND	4.75	0 of 9
GFTFDDYAMH	GISWHSLSIGEADSVK	VGRGGGYFDY	ND / ND / ND	ND	0 of 9
GFTFDDYQMH	GILWNSGSIGYADSVK	VGRGGGYFDY	ND / ND / ND	ND	0 of 9
GFTFDDYAMH	GISWNSSSIGYADSVK	VGRGGGSMDY	ND / ND / ND	ND	1 of 9 (3.51)
GFTFDPDAMH	GISWNSGSIGYADSVK	VGRGGGYFMY	ND / 5.42 / ND	5.42	1 of 9 (5.59)
GFTPDDYAMH	GISWNSGSIGYADSVK	HGRGGGYFDY	ND / ND / ND	ND	1 of 9 (4.29)
GFTFDDYAMH	AISWNSGSIGYADKVK	HGRGGGYFDY	5.36 / ND / 3.86	4.61	2 of 9 (4.20)
GFAFDDYAMH	GVSWNSGSIGYADSVK	VGRGGWYFDY	2.54 / 2.45 / 2.72	2.57	2 of 9 (4.23)
EFTFDDYAMH	GISWNSGSGGYADSVK	VGRGGYYFDY	3.76 / ND / ND	3.76	0 of 9
GVTIDDYAMH	GISWPSGSIGYADSVK	VGRGGGYFDY	ND / ND / ND	ND	2 of 9 (4.54)
GFTFDDYAME	GISWNSGSIGYADSVK	VGRGGQYIDY	4.36 / ND / ND	4.36	3 of 9 (4.73)
GFTFDDYAMH	GMVWNSGSIGYADSVK	VGRRGGYFDY	4.87 / ND / ND	4.87	1 of 9 (3.71)
GFTFDDEAMH	GMSWNSGSIGYADSVK	VGRGGGYPDY	ND / ND / ND	ND	1 of 9 (4.51)
GFTFDDRAMH	GIQWNSGSIGYADVVK	VGRGGGYFDY	ND / 4.93 / ND	4.93	0 of 9
GFTFDSYAMF	GILWNSGSIGYADSVK	VGRGGGYFDY	ND / 3.69 / ND	3.69	0 of 9
GFTFDDYAMH	GISWNIGSIDYADSVK	VGRGGGYFDY	ND / ND / ND	ND	0 of 9
GFTFDDYAMH	GIAWNSGLIGYADSVK	VGREGGYFDY	ND / ND / ND	ND	0 of 9
GFTFDDYAMH	GISWNSGSAGYADSVK	MGRGGHYFDY	4.05 / 6.69 / ND	5.37	3 of 9 (5.07)
GFTFDDYAMH	GISWGSGSIGPADSVK	VMRGGGYFDY	4.44 / 4.43 / 4.34	4.40	7 of 9 (5.02)
GFTYDDYAMH	GISWNSGSIGYADSVK	YGRGGMYFDY	6.32 / ND / 5.33	5.83	4 of 9 (4.43)

The first 2 entries again:

CDR-H1	CDR-H2	CDR-H3	log10 Kd, replicates	mean, log10 nM	control signals
GFTFDDYAMH	GISWNSGSIGVADSVK	VGVGGGYFTY	ND / ND / ND	ND	1 of 9 (4.94)
GFTFDDYAMH	GISWNSGSIGYADSVK	VYRGGGYHDY	ND / ND / ND	ND	1 of 9 (3.95)

Empty control strains, which show no peptide, gave a signal in 21% of pairings with library AAYL51; the median was 4.54 and 95% of these signals were weaker than 3.26. No background was subtracted. Also given: how often the same scFv was detected with the empty control strains, with their mean in brackets.